The record followed here is ChEMBL document CHEMBL1157172, “Rational design, synthesis, and in vivo evaluation of the antileukemic activity of six new alkylating steroidal esters” (Bioorg Med Chem, 2008).

The subject of one assay is L1210. The assay can be described thus: Antitumor activity in BDF1 mouse L1210 cells assessed as number of cured mouse at 5 mg/kg/day, ip after 90 days.
The test system of the next assay is P388. The assay can be described thus: Antitumor activity in BDF1 mouse bearing P388 cells assessed as number of cured mouse at 5 mg/kg/day, ip after 90 days.

Active and inactive are the calls of the source. No cut-off for these calls is given here.

For the molecule `O=C(O)Cc1ccc(N(CCCl)CCCl)cc1`, the result with L1210 and in the assay on P388 was inactive.

Consider `Cc1ccc(C(=O)O)cc1N(CCCl)CCCl`, for which the result with L1210 and with P388 was inactive.
